Screening data: PubChem, National Center for Advancing Translational Sciences (NCATS)
The list is not random: actives were taken first. Their share in the collection is about 0.72%.
ASM inhibitor – inhibitors of human secretory acid sphingomyelinase; placental ASM, HMU-PC fluorogenic substrate, 60 min; Potency, µM (titrated, usually from 57.5 µM), actives largely listed as inhibitors; actives 0.006% (n = 340,000)
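Steps: dispense placental human ASM, pin compound, wait 10 min at room temperature, add HMU-PC0 substrate at 9 uM final, incubate 60 min at 37 °C, add stop solution raising pH to 10, read fluorescence.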
Mito fusion act – inhibitors of mitochondrial division or activators of mitochondrial fusion; S. cerevisiae fusion-defective mutant growth rescue, CellTiterGlo 48 h; Potency, µM (top dose mostly 46.1 µM), usual class: activators; actives 0.23% (n = 320,000); AID 485298; further: nearly all actives have a fitted effect of over 45% in size
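S. cerevisiae fusion-defective temperature-sensitive mutants (e.g. fzo1-1, mgm1-5) grown 48 h at 37C in YPEG (ethanol/glycerol non-fermentable) medium with 23 nl compound per well; growth rescue read as CellTiterGlo luminescence.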
RXFP1 antag – blocks the human relaxin receptor RXFP1; AID 1259400; activity change, negative = inhibition, % at 57.5 µM; HEK293-RXFP1, relaxin-stimulated cAMP HTRF, 30 min; stronger effect = lower value; actives 0.59% (n = 350,000);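 active means activity change of -60% or lower, but not beyond a set lower limit; inconclusive means change between -60% and -40%, or beyond the set limit; inactive means change above -40%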
RXFP1 agonist – RXFP1 (human) receptor agonism; actives 0.3% (n = 370,000); HEK293T-RXFP1 cAMP TR-FRET, 30 min; response scale: percent of porcine relaxin response, buffer zero; Potency, µM (top dose mostly 57.5 µM), most hits filed as activators; AID 2676; further: nearly all actives have a fitted effect of over 60% in size
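HEK293T cells stably expressing RXFP1 were pretreated with the PDE4 inhibitor Ro 20174, exposed to compounds for 30 min at 37C, lysed, and cAMP was read by TR-FRET. Data normalized to buffer (basal) and 29 nM porcine relaxin (100%).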
ERG Ets-DNA blk – blocks human ERG Ets domain binding to DNA. fluorescence polarization, His-ERG Ets domain / labelled DNA. P11308. AID 624246. Potency, µM (series often up to 76.9 µM), usual class: inhibitors. actives 0.028% (n = 370,000); active means well fitted inhibition curve with a large enough effect in the polarisation, with a control signal flat; inconclusive means small, poorly fitted or top-dose-only effect, or effect the other way, or a change in a side signal; inactive means no such curve, though single readings can be large or run the other way; the % refers to the polarisation;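 further: polarization taken with two DNA probes labelled with fluorescein and Texas red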
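His-tagged ERG Ets domain (1 uM in the protein solution; 300mM KCl, 50mM Tris-HCl, 1mM EDTA, 1mM DTT, pH 7.5) received compound, then a probe mix of 5 nM fluorescein-DNA and 100nM Texas-615-DNA. Fluorescence polarization was read for both dyes.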
miR-21 reporter – miR-21 reporter, rising signal | AID 2288 | HeLa miR-21 FLuc reporter, luciferase, 48 h | 340,000 tested, under 10 active | Potency, µM (titrated, usually from 38.3 µM); active = well fitted rising curve with a large enough effect; inconclusive = small, poorly fitted or top-dose-only effect; inactive = no such curve, though single readings can be large or run the other way;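 also: miR-21 action dims this reporter so a rising signal means less miR-21 action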
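HeLa miR-21-FLuc reporter line, endogenous miR-21; 2000 cells/well in DMEM/10% FBS; compound titration up to ~40uM final, 48 h, 37 degree Celsius; luciferase detection reagent, 15 min lysis, CCD luminescence.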
Numbers stand for hits; i = inactive; ? = inconclusive; nt = not tested or not shown; ! = not confirmed by another sample. Unless noted, the call rests on the fitted dose curve; in most records, active means well fitted curve in the direction sought with a large enough effect; inconclusive means small, poorly fitted or top-dose-only effect, or another doubt; inactive means no such curve, though single readings can be large; an effect the other way counts as inactive or inconclusive.

SMILES	ASM inhibitor	Mito fusion act	RXFP1 antag	RXFP1 agonist	ERG Ets-DNA blk	miR-21 reporter
Fc1ccccc1N1CCN(C(c2ccccn2)c2nnnn2C2CCCCC2)CC1 (stereo unspecified)	i	13µM	i	i	nt	i
O=C(CN1CCCCCC1)Nc1ccc(Oc2ccccc2)cc1	i	i	-64	i	i	i
COc1cc2c(=O)n(CCc3ccccc3)c(=O)n(CC(=O)Nc3ccccc3)c2cc1OC	nt	nt	nt	i	i	i
COCCN(Cc1cc2cc(C)cc(C)c2nc1Cl)C(=O)Nc1ccccc1	i	i	i	i	i	i
Cc1cc(C)c2nc(Cl)c(CN(Cc3ccco3)C(=O)Nc3ccccc3C)cc2c1	i	7.1µM	i	i	nt	i
CC(=O)N1N=C(c2ccc(C)o2)CC1c1cccc(F)c1 (stereo unspecified)	i	i	-61	i	i	i
CC(=O)N1N=C(c2ccccc2)CC1c1ccc(F)cc1 (stereo unspecified)	i	i	i	i	i	i
Cc1cc(=O)oc2c3c(ccc12)OCN(Cc1ccccc1Cl)C3	nt	nt	nt	i	i	i
O=c1oc2c3c(ccc2c2ccccc12)OCN(Cc1ccccc1Cl)C3	nt	nt	i	28µM	i	i
CCc1c(C(=O)NCCc2ccc(N3CCCCC3)cc2)[nH]c2ccc(Cl)cc12	nt	i	nt	nt	nt	nt
Cc1cc(C)cc(Oc2nc(-c3ccccc3)cc(C)c2S(C)(=O)=O)c1	?	i	i	i	i	i
Cc1cc(-c2ccccc2)nc(Oc2ccc(C(C)(C)C)cc2)c1S(C)(=O)=O	?	8.9µM	i	i	i	i
CC1CCC(C(C)C)C(OC(=O)Cn2c(-c3ccc(Br)cc3)[n+](C)c3ccccc32)C1 (stereo unspecified)	i	i	-81!	i	i	?
CC(C)(C)OC(=O)N1CCC(c2c(C(=O)N3CCN(c4ccccc4F)CC3)cnn2C(C)(C)C)CC1	nt	nt	i	i	i	i
COc1ccc(-c2cc(C)no2)cc1S(=O)(=O)NCc1cccs1	nt	nt	i	i	i	i
COc1ccc2c(c1)c(CC(=O)OC/C=C(\C)CC/C=C(\C)CCC=C(C)C)c(C)n2C(=O)c1ccc(Cl)cc1	nt	nt	i	nt	nt	nt
CC(=O)O[C@]1(C(C)=O)CC[C@H]2[C@@H]3C=C(Cl)C4=CC(=O)CC[C@]4(C)[C@H]3CC[C@@]21C	i	?	-83	i	i	i
CC(=O)O[C@]1(C(C)=O)CC[C@H]2[C@@H]3C[C@H](C)C4=CC(=O)CC[C@]4(C)[C@H]3CC[C@@]21C	i	i	?	i	25µM!	i
CC(=O)OC1(C(C)=O)CCC2C3CC(C(F)(F)F)C4=CC(=O)CCC4(C)C3CCC21C (stereo unspecified)	i	nt	i	nt	i	nt
CCC(=O)OC1(C(C)=O)CCC2C3CCC4=CC(=O)CCC4(C)C3CCC21C (stereo unspecified)	i	nt	i	nt	i	nt
CC(=O)O[C@]1(C(C)=O)CC[C@H]2[C@@H]3C=C(Cl)C4=CC(=O)[C@@H]5C[C@@H]5[C@]4(C)[C@H]3CC[C@@]21C	i	21µM	i	i	i	nt
CCn1ccc(NS(=O)(=O)c2ccc(N)cc2)nc1=O	nt	nt	i	nt	nt	nt
O=C1C=C(/C=C/c2ccccc2)C[C@@H](c2ccc3c(c2)OCO3)C1	i	?	nt	i	i	nt
CN1C(=O)C2C=CC1C1C(=O)N(c3ccccc3)C(=O)C21 (stereo unspecified)	i	6.3µM	i	i	i	i
O=C1C2C3C=CC(C3=C3CCCCC3)C2C(=O)N1c1ccccc1 (stereo unspecified)	i	i	i	i	i	i
SMILES	ASM inhibitor	Mito fusion act	RXFP1 antag	RXFP1 agonist	ERG Ets-DNA blk	miR-21 reporter
C=C(CC)C(=O)c1ccc(OCC(=O)O)c(Cl)c1Cl	i	i	-71	i	i	i
CCOc1ccc(/C=C2\SC(=S)NC2=O)cc1OC	i	i	-73	i	i	i
CCCC(=O)Nc1ccc(O)c(C(C)=O)c1	nt	nt	i	nt	nt	nt
CC(Oc1ccccc1)C(=O)Nc1nnc(S(=O)(=O)N(C)c2ccccc2)s1 (stereo unspecified)	i	13µM	i	i	i	i
CCOC(=O)N1CCC(Nc2ccc(Cl)cc2N)CC1	nt	nt	i	nt	nt	nt
O=C(CN1C(=O)c2cccc3cccc(c23)C1=O)NCCN1CCOCC1	i	i	i	14µM	i	i
CCOC(=O)c1sc(=S)[nH]c1C	i	nt	i	nt	nt	nt
CCOC(=O)c1c(C)[nH]sc1=S	i	i	i	25µM	i	i
CC(=O)OCC(=O)[C@H]1CC[C@H]2[C@@H]3CCC4=CC(=O)CC[C@]4(C)[C@H]3CC[C@]12C	i	i	i	i	i	i
CC(=O)C1CCC2C3CC=C4CC(SC(=N)N)CCC4(C)C3CCC12C (stereo unspecified)	i	nt	-105	nt	i	nt
C[C@]12CCC3C(CC=C4C[C@@H](O)CC[C@@]43C)C1CCC2[C@]1(C)CCC(=O)O1 (stereo partly specified)	i	i	i	i	i	i
CC12CCC(O)CC1=CCC1C2CCC2(C)C1CCC21CCC(=O)O1 (stereo unspecified)	i	20µM	nt	i	i	i
CC(=O)OCC(=O)C1CCC2C3CC=C4CC(O)CCC4(C)C3CCC12C (stereo unspecified)	i	3.2µM	nt	i	i	nt
CCOC(=O)C(=O)CCCCCCl	nt	nt	i	nt	nt	nt
CCN(CC)CC(=O)Oc1ccc(NC(C)=O)cc1	nt	nt	i	nt	nt	nt
O=C(Nc1cccc(C(=O)N2CCOCC2)c1)C1CC1	i	nt	nt	nt	i	nt
Cc1cccc(N2CCN(C(=O)C3CCN(C(=O)c4cc5sccc5n4C)CC3)CC2C)c1 (stereo unspecified)	nt	nt	-65	i	i	?
O=C1c2ccccc2S(=O)(=O)N1CC1CC(c2ccccc2)=NO1 (stereo unspecified)	i	i	i	i	i	i
O=C1c2ccccc2S(=O)(=O)N1CC1CC(c2ccc(Cl)cc2)=NO1 (stereo unspecified)	i	16µM	i	i	i	i
CN1CCN(CC(=O)c2cc(C(C)(C)C)c(O)c(C(C)(C)C)c2)CC1	i	i	-85	i	i	i
CC(C)(C)c1cc(CN2CCN(CCO)CC2)cc(C(C)(C)C)c1O	i	i	i	i	i	i
Nc1ncnc2c1nc(Br)n2C1OC2COP(=O)(O)O[C@@H]2C1O (stereo partly specified)	nt	i	nt	nt	nt	nt
COc1cccc(C(=O)Nc2ccc(-c3cn4cccnc4n3)cc2)c1OC	nt	nt	nt	i	i	i
CC(C(O)c1ccccc1)N(C)CCOC(c1ccccc1)c1ccccc1 (stereo unspecified)	nt	nt	i	nt	nt	nt
CCN(CC)c1ccc(/C=C2\SC(=O)N(C(C)C)C2=O)o1	i	i	-83	i	i	?
